These results are taken from PubChem BioAssay AID1486 (The Scripps Research Institute Molecular Screening Center, 2009).

The list shows a part of the results, in another mix than the full data. Calls of active or inactive are those of the source.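 How the source made its calls: active means inhibition above a per-campaign cutoff, the mean inhibition of all tested compounds plus 3 SD (cut at about 27% in these data); inactive means the rest.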

Usually inhibition stands for the drop in the measured response relative to a control, in per cent.

The test is described as follows: growth loss in parental Ba/F3 cells – cell-based, murine pro-B, CellTiter-Glo luminescence, counter-screen for JAK2V617F inhibitor project (AID 1486).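 Further: 0% = DMSO wells and 100% = JAK Inhibitor I control wells.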 The note with it: Ba/F3 parental viability, CellTiter-Glo ATP luminescence; at 5.6 µM; active compounds read high. A general note: In ATP-based viability assays light output follows the ATP content of the culture.
Regarding `Cc1c2c(nc3ccccc13)SC(C(Cl)Cl)C2` (stereo not given), the inhibition was inactive: 4.11%.

Consider `CCN(CC)C(=S)SC(NC=O)C(Cl)(Cl)Cl` (stereo not given), for which the inhibition was inactive: 2.79%.

Turning to `CC(C)NC(=O)NP(=O)(Oc1ccccc1)Oc1ccccc1`, the inhibition was inactive: 8.28%.

Turning to `O=[N+]([O-])c1cc([N+](=O)[O-])c(-c2ccn[nH]2)s1`, the inhibition is inactive: 5.02%.

Turning to `CC(C)c1ccc(OP(=O)(Nc2ccccn2)Oc2ccccc2F)cc1` (stereo not given), the inhibition is inactive: -2.1%.

On to `ClCCSc1nnc(-c2cccnc2)o1`, for which the inhibition is inactive: 5.52%.

In the case of `Cc1ccc2nc3c(c(C)c2c1)CC(C(Cl)Cl)S3` (stereo not given), the inhibition is inactive: 0%.

In the case of `Cc1ccc(OP(=O)(Nc2ccc([N+](=O)[O-])cn2)Oc2ccc(C)cc2)cc1`, the inhibition is inactive: 3.65%.

In the case of `O=[As](O)(c1ccc(O)cc1)c1ccccc1O`, the inhibition is inactive: -3.52%.

In the case of `C[As](=O)(O)c1cccc(C(=O)O)c1`, the inhibition is inactive: 7.83%.

Turning to `O=[N+]([O-])c1ccc(Nc2ccc(Oc3ccc([N+](=O)[O-])cc3[N+](=O)[O-])cc2)c([N+](=O)[O-])c1`, the inhibition is inactive: -1.33%.

On to `Cc1cc(SC(NC=O)C(Cl)(Cl)Cl)ncn1` (stereo not given), for which the inhibition is inactive: 8.65%.

For `O=P(Nc1ccccn1)(c1cccc2ccccc12)c1cccc2ccccc12`, the inhibition is inactive: 8.22%.

As to `CCOC(=O)Nc1cccc([As](=O)(O)O)c1`, the inhibition was inactive: -3.56%.

As to `Cc1cc(SC(NC(=O)c2ccccc2)C(Cl)(Cl)Cl)nc(C(C)C)n1` (stereo not given), the inhibition is inactive: 5.37%.

`CCOC(=O)Nc1ccc([As](=O)(O)O)c(O)c1`: the inhibition is inactive: -4.74%.

With `CCC(C)N(CC(C)C)C(=S)SC(NC(C)=O)C(Cl)(Cl)Cl` (stereo not given), the inhibition was inactive: 3.5%.

Take `CCOC(=O)c1ccc(NC(=O)C(C)(CCl)SC)cc1` (stereo not given): the inhibition is inactive: -2.1%.

In the case of `O=C(COc1ccccc1)OC1CN2CCC1CC2` (stereo not given), the inhibition was inactive: -1.84%.

`COP1(=S)c2c(C)nn(CCC#N)c2N=C(c2ccc(F)cc2)N1C` (stereo not given): the inhibition was inactive: 5.16%.
